Source: patent US12528818B2, “Compositions and methods for inhibition of RAS” (Leidos Biomedical Research, Inc., priority 2021, dated 2026)

Tests used:
[1] = target: GDP-loaded KRAS4b (amino acids 1-169) G12C/C118S protein (Homo sapiens, UniProt P01116, C118S/G12C); experiment: Covalent cysteine 12 modification by MALDI-TOF MS, GDP-loaded KRAS G12C; type: biochemical; details: 15 minutes reaction time, compound 95 or later using 1 μM proteins
[2] = target: Avi-KRAS G12C (1-169) GppNHp/RAF1 RBD-3xFLAG (52-151) (Homo sapiens, UniProt P01116, G12C); experiment: biochemical; details: Raf1-GppNHp-KRAS G12C disruption, Raf1 RBD-KRAS G12C-GppNHp disruption assay IC50
[3] = target: T1, GTP-loaded KRAS4b (amino acids 1-169) G12C/C118S protein (Homo sapiens, UniProt P01116, C118S/G12C); experiment: Covalent cysteine 12 modification by MALDI-TOF MS, GTP-loaded KRAS G12C; type: biochemical; details: 15 minutes reaction time, compound 95 or later using 1 μM proteins
T1 construct: KRAS4b (amino acids 1-169) G12C/C118S protein; made in house

[4] = target: GppNHp-loaded KRAS4b (amino acids 1-169) G12C/C118S protein (Homo sapiens, UniProt P01116, C118S/G12C); experiment: Covalent cysteine 12 modification by MALDI-TOF MS, GppNHp-loaded KRAS G12C; type: biochemical; details: 15 minutes reaction time, compound 95 or later using 1 μM proteins

| SMILES | GDP-KRAS G12C percent of modification [1] | IC50 [2] | GTP-KRAS G12C percent of modification [3] | GppNHp-KRAS G12C percent of modification [4] |
| --- | --- | --- | --- | --- |
| C=CC(=O)N1CC[C@@H](N(C)c2nc(OC[C@]34CCCN3C[C@H](OC)C4)nc3c(F)c(-c4ccc(F)c5sc(N)nc45)c(C(F)(F)F)cc23)C1 (atropisomer, axis not shown) [Compound 278] | D (percent of modification <10%) | 500 to 5000 nM | D (percent of modification <10%) | D (percent of modification <10%) |
| C=CC(=O)N1CCC(N(CC)c2nc(OC[C@@H]3C[C@@H](OC)CN3C)nc3c(F)c(-c4ccc(F)c5sc(N)c(C#N)c45)c(C(F)(F)F)cc23)[C@H]1C (some centres unmarked) [Compound 392] | B (50≤percent of modification <70%) | < 500 nM | C (10%≤percent of modification <50%) | C (10%≤percent of modification <50%) |
| C=CC(=O)N1C[C@H](N(C)c2nc(OC[C@@]34CCCN3C[C@H](F)C4)nc3cc(-c4ccc(F)c5sc(N)nc45)c(C(F)(F)F)cc23)C[C@H]1C [Compound 309] | A (percent of modification ≥70%) | < 500 nM | B (50≤percent of modification <70%) | A (percent of modification ≥70%) |
| C=CC(=O)N1C[C@H](C)N(c2nc(OC[C@]3(C)CCCN3C)nc3c(F)c(-c4ccc(F)c5sc(N)c(C#N)c45)c(C(F)(F)F)cc23)C[C@H]1C [Compound 447, 4-(4-((2S,5R)-4-acryloyl-2,5-dimethylpiperazin-1-yl)-2-(((S)-1,2-dimethylpyrrolidin-2-yl)methoxy)-8-fluoro-6-(trifluoromethyl)quinazolin-7-yl)-2-amino-7-fluorobenzo[b]thiophene-3-carbonitrile] | A (percent of modification ≥70%) | < 500 nM | C (10%≤percent of modification <50%) | A (percent of modification ≥70%) |
| C=CC(=O)N1C[C@@H](F)[C@@H](N(C)c2nc(OC[C@@]34CCCN3C[C@H](F)C4)nc3cc(-c4ccc(F)c5sc(N)c(C#N)c45)c(C(F)(F)F)cc23)C1 [Compound 315, 4-(4-(((3S,4R)-1-acryloyl-4-fluoropyrrolidin-3-yl)(methyl)amino)-2-(((2R,7aS)-2-fluorotetrahydro-1H-pyrrolizin-7a(5H)-yl)methoxy)-6-(trifluoromethyl)quinazolin-7-yl)-2-amino-7-fluorobenzo[b]thiophene-3-carbonitrile] | A (percent of modification ≥70%) | < 500 nM | A (percent of modification ≥70%) | A (percent of modification ≥70%) |
| C=CC(=O)N1CCC(N(C)c2nc(OC[C@@H]3CC4(CC4)CN3C)nc3c(F)c(-c4ccc(F)c5sc(N)c(C#N)c45)ccc23)[C@H]1C (some centres unmarked) [Compound 436] | A (percent of modification ≥70%) | < 500 nM | A (percent of modification ≥70%) | A (percent of modification ≥70%) |
| C=CC(=O)N1C[C@H](C)N(c2nc(OC)nc3c(F)c(-c4ccc(F)c5sc(N)c(C#N)c45)c(C(F)(F)F)cc23)C[C@H]1C [Compound 385] | C (10%≤percent of modification <50%) | 500 to 5000 nM | D (percent of modification <10%) | D (percent of modification <10%) |
| C=CC(=O)N1CCC(N(C)c2nc(OC[C@@H]3C[C@@H](F)CN3C)nc3c(F)c(-c4ccc(F)c5sc(N)c(C#N)c45)ccc23)[C@H]1C (some centres unmarked) [Compound 429] | A (percent of modification ≥70%) | < 500 nM | A (percent of modification ≥70%) | A (percent of modification ≥70%) |
| C=CC(=O)N1C[C@H](C)N(c2nc(OC[C@@H]3CCCN3C)nc3c(F)c(-c4ccc(F)c5sc(N)c(C#N)c45)c(C(F)(F)F)cc23)C[C@H]1C [Compound 363, 4-(4-((2S,5R)-4-acryloyl-2,5-dimethylpiperazin-1-yl)-8-fluoro-2-(((S)-1-methylpyrrolidin-2-yl)methoxy)-6-(trifluoromethyl)quinazolin-7-yl)-2-amino-7-fluorobenzo[b]thiophene-3-carbonitrile] | A (percent of modification ≥70%) | < 500 nM | C (10%≤percent of modification <50%) | A (percent of modification ≥70%) |

Second part, the compound after the results:

| GDP-KRAS G12C percent of modification [1] | IC50 [2] | GTP-KRAS G12C percent of modification [3] | GppNHp-KRAS G12C percent of modification [4] | SMILES |
| --- | --- | --- | --- | --- |
| A (percent of modification ≥70%) | < 500 nM | A (percent of modification ≥70%) | A (percent of modification ≥70%) | C=CC(=O)N1CCC(N(CC)c2nc(OC[C@@]34CCCN3C[C@H](F)C4)nc3c(C#N)c(-c4ccc(F)c5sc(N)c(C#N)c45)ccc23)[C@H]1C (stereo partly drawn) [Compound 415, 4-((1-acryloyl-2-methylpyrrolidin-3-yl)(ethyl)amino)-7-(2-amino-3-cyano-7-fluorobenzo[b]thiophen-4-yl)-2-(((2R,7aS)-2-fluorotetrahydro-1H-pyrrolizin-7a(5H)-yl)methoxy)quinazoline-8-carbonitrile] |
| C (10%≤percent of modification <50%) | < 500 nM | D (percent of modification <10%) | C (10%≤percent of modification <50%) | C=CC(=O)N1CC[C@@H](N(CC)c2nc(OC[C@@]34CCCN3C[C@H](F)C4)nc3c(F)c(-c4ccc(F)c5sc(N)c(C#N)c45)c(C(F)(F)F)cc23)[C@H]1C [Compound 403] |
| D (percent of modification <10%) | > 20000 nM | D (percent of modification <10%) | D (percent of modification <10%) | C=CC(=O)N1CC[C@@H](N(C)c2nc(OC[C@@]34CCCN3C[C@H](F)C4)nc3c(F)c(-c4ccc(F)c5sc(N)c(C#N)c45)c(C(F)(F)F)cc23)[C@H]1C (single isomer, unassigned) [Compound 435] |
| A (percent of modification ≥70%) | < 500 nM | C (10%≤percent of modification <50%) | A (percent of modification ≥70%) | C=CC(=O)N1CCC(N(C)c2nc(OC[C@@]34CCCN3C[C@H](OC)C4)nc3c(F)c(-c4ccc(F)c5sc(N)c(C#N)c45)c(Cl)cc23)[C@H]1C (some centres unmarked) [Compound 474] |
| A (percent of modification ≥70%) | < 500 nM | A (percent of modification ≥70%) | A (percent of modification ≥70%) | C=CC(=O)N1CC[C@@H](N(C)c2nc(OC[C@@]34CCCN3C[C@H](F)C4)nc3cc(-c4ccc(F)c5sc(N)c(C#N)c45)c(C(F)(F)F)cc23)[C@H]1C [Compound 354, 4-(4-(((2R,3R)-1-acryloyl-2-methylpyrrolidin-3-yl)(methyl)amino)-2-(((2R,7aS)-2-fluorotetrahydro-1H-pyrrolizin-7a(5H)-yl)methoxy)-6-(trifluoromethyl)quinazolin-7-yl)-2-amino-7-fluorobenzo[b]thiophene-3-carbonitrile] |
